Results as given in paper PMC6278801.

Assays:
[1] = target: ANF-RGC ΔSHD mutant (rat) (UniProt P18910)
[2] = target: ANF-RGC ΔSHD mutant (rat) (UniProt P18910); remark: listed apart in the source

Substance: myristoylated neurocalcin δ (from UniProt P61602 1-193) (natural protein)
- EC50 of myr-NCδ in modulating guanylate cyclase activity of COS cell membranes, 1 μM Ca^2+ [1]: 400 nM
- guanylate cyclase activity of COS cell membranes at increasing concentrations of myr-NCδ, 1 μM Ca^2+; highest value (5.7-fold) (pmol cGMP min^-1 (mg prot)^-1) [2]: 348
